Active and inactive are the calls of the source. The calls are words filed in the database; no cut-off is given here.
Each molecule was assayed against T1, Heat shock factor protein 1 (Homo sapiens) (UniProt Q00613) (assay: Transcriptional activation of HSF1 in human HeLa cells assessed as granule formation treated for 3 hrs at 37 degC without heat shock by immunocytochemical staining).
T1 sequence (whole entry): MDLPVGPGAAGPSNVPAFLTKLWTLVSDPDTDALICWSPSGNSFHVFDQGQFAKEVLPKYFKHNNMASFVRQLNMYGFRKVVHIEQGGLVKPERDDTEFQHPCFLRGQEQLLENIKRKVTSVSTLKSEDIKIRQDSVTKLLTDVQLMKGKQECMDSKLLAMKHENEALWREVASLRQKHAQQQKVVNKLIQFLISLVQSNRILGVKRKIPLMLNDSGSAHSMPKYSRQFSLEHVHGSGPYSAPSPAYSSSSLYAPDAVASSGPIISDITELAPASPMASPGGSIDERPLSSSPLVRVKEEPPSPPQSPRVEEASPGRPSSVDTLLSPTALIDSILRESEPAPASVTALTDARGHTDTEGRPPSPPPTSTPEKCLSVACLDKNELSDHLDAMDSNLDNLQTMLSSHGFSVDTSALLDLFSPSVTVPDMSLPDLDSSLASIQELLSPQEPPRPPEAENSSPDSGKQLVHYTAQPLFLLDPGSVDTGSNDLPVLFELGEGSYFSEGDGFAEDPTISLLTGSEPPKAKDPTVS

Activity, inactive:
OC(CO/N=C(\Cl)c1nc2ccccc2o1)CN1CCOCC1 (stereo unspecified)
CS(=O)(=O)NCC(O)CO/N=C(\Cl)c1nc2ccccc2o1 (stereo unspecified)
OC(CO/N=C(\Cl)c1cc2ccccc2s1)CN1CCCCC1 (stereo unspecified)
O=C(NOCC(O)CN1CCCCC1)c1nc2ccccc2o1 (stereo unspecified)
CC(=O)NCC(O)CO/N=C(\Cl)c1nc2ccccc2o1 (stereo unspecified)
Cl/C(=N\OCCCN1CCCCC1)c1nc2ccccc2o1
OC(CO/N=C(/c1nc2ccccc2o1)C(F)(F)F)CN1CCCCC1 (stereo unspecified)
C/C(=N\OCC(O)CN1CCCCC1)c1nc2ccccc2o1 (stereo unspecified)
CO/C(=N\OCC(O)CN1CCCCC1)c1nc2ccccc2o1 (stereo unspecified)
OC(CO/N=C(\Cl)c1cc2ccccc2o1)CN1CCCCC1 (stereo unspecified)
OC(CO/N=C/c1nc2ccccc2o1)CN1CCCCC1 (stereo unspecified)
